Ab-95 light chain CDR variants: yeast mating affinities

Antigen: PDVDLGDISGINAS, a 14-residue peptide of the SARS-CoV-2 spike HR2 region.

The variants keep the heavy chain, the linker and the frameworks of Ab-95 (scFv order VH, a 15-residue (Gly4Ser)3 linker, VL).
VH: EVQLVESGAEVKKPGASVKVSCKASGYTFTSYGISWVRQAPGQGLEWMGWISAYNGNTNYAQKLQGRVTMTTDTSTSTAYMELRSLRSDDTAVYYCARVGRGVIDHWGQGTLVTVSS
VL: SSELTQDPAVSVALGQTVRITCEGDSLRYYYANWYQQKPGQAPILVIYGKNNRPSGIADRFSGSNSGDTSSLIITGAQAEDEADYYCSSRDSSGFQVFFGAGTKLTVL

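The starting antibody came from a phage panning campaign against this peptide. Variants in AAYL52 differ from the parent at up to three CDR positions; double and triple changes were sampled at random. The scFvs were displayed on barcoded MATa yeast, the peptide on MATalpha yeast. The frequency of each diploid, read from paired DNA barcodes, reflects how well the two displayed proteins bind. Read counts were normalised to the haploid input and turned into Kd by a linear fit to BCL2-family pairs of known affinity, for each replicate. There are three technical replicates.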

Positions count from residue 1 of the parent VL; S88K puts K in place of S. All variants listed here change S88 of the VL, counted from its first residue. The read-out is the apparent dissociation constant on a log10 scale (nM): the lower, the stronger. "nd" means that the variant was in the library but no mating with the target was seen in that replicate; the authors take this as a sign of poor binding, and no number exists. Three control strains display no target. For library AAYL52, 28% of the pairings with them gave a signal, with a median of 3.91 and one signal in twenty below 2.90, so weak values seen in few replicates may be background.

For S88K+S93K+F98V, the assay gave 3.56, nd, nd. Variant S88D+S89I+Q96T gave nd, nd, nd. Variant R28Q+P54I+S88P showed 3.69, nd, nd. For S88Y+S89C+D91F, the assay gave 5.08, nd, 4.10. For G24Q+N52Y+S88I, the assay gave nd, nd, nd. Variant G24C+S88E+S93I showed 4.41, nd, 4.30. For G24V+G49M+S88Y, the assay gave 3.97, nd, nd. With S26V+P54H+S88T the result was 4.46, nd, 3.74.

With G24W+S88A+S93E the result was nd, 3.44, nd. Variant S26D+Y29V+S88C showed 3.77, 4.42, 3.37. For S88M+S89C+V97P, the assay gave nd, 3.12, nd. Variant L27V+S88G+Q96K gave 2.90, 3.76, 3.57. With E23C+S88Y+S89T the result was nd, nd, nd. With S26V+A32D+S88P the result was nd, 5.21, 3.48. Variant N52A+S88N+S93G showed 4.49, 3.79, 3.17. Variant R53G+S88Q+S93V gave nd, 3.36, 1.88.

Variant E23Q+S88C gave 2.54, 2.30, 2.01. Variant S88N+D91Q+V97Y gave 3.76, nd, nd. With G24H+Y31C+S88A the result was 2.83, 2.85, 3.22. Variant S88A+F98K showed 3.28, 3.17, 2.83. Variant S88M+G94Q gave 2.74, 3.17, 2.93. For R53A+P54A+S88C, the assay gave 2.85, 2.89, 2.78. Variant Y31F+S88R+D91M showed 2.24, 3.13, 2.34. For G24Q+S88K+S89Y, the assay gave nd, nd, nd.

Variant R53F+S55I+S88C gave nd, 5.32, 2.76. For S88G+D91K, the assay gave 4.22, 4.31, nd. For L27H+S55N+S88W, the assay gave nd, nd, nd. Variant S88L+S93F gave 4.06, 3.10, 2.83. Variant N33R+S88K+F98S gave nd, nd, nd. Variant L27C+Y29F+S88V gave 3.01, 2.84, nd.

Extract of 3 entries:

| changes | log10 Kd, replicates |
|---|---|
| S88N+D91Q+V97Y | 3.76, nd, nd |
| S26V+P54H+S88T | 4.46, nd, 3.74 |
| L27C+Y29F+S88V | 3.01, 2.84, nd |

Reference: Engelhart et al. 2022, doi:10.1038/s41597-022-01779-4. File: FLAb, binding data.